In publication PMC8150020, “Studying the suitability of hybrid micelle liquid chromatography for estimating the lipophilicity of some partial dopamine agonists used to attain the reward circuit” (Royal Society Open Science, 2021):
Counter-ions that a name gives are not always drawn. Like-named read-outs stand apart in the source and are kept apart here.

How the values were obtained:
[1] = experimental determination of log Pm/w using HMLC; format: physicochemical; details: for experimental log Pm/w HMLC: 0.18 M SDS, 10% acetonitrile, 0.3% TEA, pH 6, column 40°C
[2] = parameters: method as in earlier work; details: cited from earlier work

| SMILES | experimental log Pm/w HMLC [1] | experimental log Pm/w, column temperature 40°C ([1]; HMLC, pH 6, 40°C) | reported log P [2] | chromatographic logP ([1]; HMLC, pH 5, 40°C, read-out: log P (experimental log Pm/w) pH 5) | experimental log Pm/w, column temperature 35°C ([1]; HMLC, pH 6, 35°C) | chromatographic logP ([1]; HMLC, pH 6, 40°C, read-out: log P (experimental log Pm/w) pH 6) |
| --- | --- | --- | --- | --- | --- | --- |
| CCCN[C@H]1CCc2nc(N)sc2C1 (racemic) [PRM, (RS)-4,5,6,7-tetrahydro-N-6-propyl-2,6-benzothiazolediamine dihydrochloride monohydrate] | 2.323 | 2.323 | – | – | – | – |
| O=C1CCc2ccc(OCCCCN3CCN(c4cccc(Cl)c4Cl)CC3)cc2N1 [ARP, 7-[4-[4-(2,3-dichlorophenyl)piperazin-1-yl]butoxy]-3,4-dihydro-1H-quinolin-2-one] | 4.729 | 4.729 | 4.6 | 4.62 | 4.46 | 4.73 |
